Laboratory results taken from US20050288369A1, “Novel n-hydroxy thiourea, urea and amide compounds and the pharmaceutical compositions comprising the same” (priority 2002, published 2005).

Amino acid sequences for entries named in this document (tags omitted).
UniProt O35433, whole entry: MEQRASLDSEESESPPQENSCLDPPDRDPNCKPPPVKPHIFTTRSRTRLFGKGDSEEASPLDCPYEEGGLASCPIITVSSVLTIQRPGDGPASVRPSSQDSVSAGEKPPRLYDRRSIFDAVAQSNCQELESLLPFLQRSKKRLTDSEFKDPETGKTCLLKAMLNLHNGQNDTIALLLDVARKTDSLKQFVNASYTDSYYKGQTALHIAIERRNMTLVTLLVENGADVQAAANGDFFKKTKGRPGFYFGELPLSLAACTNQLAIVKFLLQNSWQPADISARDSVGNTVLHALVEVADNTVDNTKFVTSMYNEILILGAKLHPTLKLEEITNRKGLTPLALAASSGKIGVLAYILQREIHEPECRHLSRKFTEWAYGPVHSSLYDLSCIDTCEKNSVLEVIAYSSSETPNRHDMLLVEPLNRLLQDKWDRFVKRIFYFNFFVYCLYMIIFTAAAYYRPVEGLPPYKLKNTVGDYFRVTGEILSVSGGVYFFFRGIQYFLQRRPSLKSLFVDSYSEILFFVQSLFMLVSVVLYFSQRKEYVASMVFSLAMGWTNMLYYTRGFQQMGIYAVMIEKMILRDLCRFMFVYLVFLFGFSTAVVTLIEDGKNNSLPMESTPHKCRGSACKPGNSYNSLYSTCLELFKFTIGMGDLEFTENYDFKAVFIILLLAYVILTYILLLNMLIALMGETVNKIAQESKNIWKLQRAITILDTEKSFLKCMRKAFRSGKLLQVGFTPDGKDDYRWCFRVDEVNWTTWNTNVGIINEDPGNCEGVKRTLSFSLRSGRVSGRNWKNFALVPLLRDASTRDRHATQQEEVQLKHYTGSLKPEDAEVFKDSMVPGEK

Target: T1, vanilloid receptor-1 (VR1) (Rattus norvegicus, UniProt O35433)
T1 construct: expressed in transfected cells; host or cells: Chinese Hamster Ovary cells (CHO, ATCC CCL-61), Tet-off inducible expression
Test: [3H]RTX competition binding assay, VR1-expressing CHO cells
Settings: displacement of bound [3H]RTX; mean±SEM, 3 experiments
Protocol: The binding affinity activity of the target compounds for vanilloid receptor-1 was measured by an in vitro receptor binding affinity assay. In the receptor binding assay, the compounds were evaluated for their ability to displace bound [^3H]RTX from the receptor. The results are expressed in terms of Ki values (mean±SEM, 3 experiments) which represent the concentration of the non-radioactive ligand that displaces half of the bound labeled RTX.
The VR receptor binding affinity activity of the inventive compounds was measured by using Chinese Hamster Ovary (CHO, ATCC, No. CCL-61) cell whose cDNA of VR1 (pUHG102 VR1 plasmid) was transfected, which can control the expression of VR1 according to the presence of tetracycline and Tetracycline on/off system (pTet off regulatory plasmid, Clontech. Inc., USA) that the expression of VR1 is induced by removing tetracycline from the medium. […]
Experiments were designed to assess inhibition of specific [^3H]RTX binding to membranes by non-radioactive compounds. […] Non-specific binding assay was measured after mixing 100 nM of non-radioactive RTX thereto. […] The tips of tube containing above precipitate was cut off and the amount of bound radioisotope was determined by scintillation counter (LS6500, Beckman-Coulter, USA). The measurement of binding was determined in triplicate in each experiment, and each experiment was repeated at least two times. […]

**Q.** How did the Ki turn out when CC(C)(C)c1ccc(CN(O)C(=S)NCc2ccc(NS(C)(=O)=O)c([N+](=O)[O-])c2)cc1 [Compound 32, N-(4-tert-butylbenzyl)-N-hydroxy-N-[4-(methylsulfonylamino)-3-nitrobenzyl]thiourea] was run?
**A.** 1330 nM
